We go through eleven compounds from patent US8791131B2, “Imidazo[1,5]naphthyridine compounds, their pharmaceutical use and compositions” (Pfizer Inc., priority 2008, dated 2014).

Amino acid sequences for entries named in this document (tags omitted).
UniProt P42337, whole entry: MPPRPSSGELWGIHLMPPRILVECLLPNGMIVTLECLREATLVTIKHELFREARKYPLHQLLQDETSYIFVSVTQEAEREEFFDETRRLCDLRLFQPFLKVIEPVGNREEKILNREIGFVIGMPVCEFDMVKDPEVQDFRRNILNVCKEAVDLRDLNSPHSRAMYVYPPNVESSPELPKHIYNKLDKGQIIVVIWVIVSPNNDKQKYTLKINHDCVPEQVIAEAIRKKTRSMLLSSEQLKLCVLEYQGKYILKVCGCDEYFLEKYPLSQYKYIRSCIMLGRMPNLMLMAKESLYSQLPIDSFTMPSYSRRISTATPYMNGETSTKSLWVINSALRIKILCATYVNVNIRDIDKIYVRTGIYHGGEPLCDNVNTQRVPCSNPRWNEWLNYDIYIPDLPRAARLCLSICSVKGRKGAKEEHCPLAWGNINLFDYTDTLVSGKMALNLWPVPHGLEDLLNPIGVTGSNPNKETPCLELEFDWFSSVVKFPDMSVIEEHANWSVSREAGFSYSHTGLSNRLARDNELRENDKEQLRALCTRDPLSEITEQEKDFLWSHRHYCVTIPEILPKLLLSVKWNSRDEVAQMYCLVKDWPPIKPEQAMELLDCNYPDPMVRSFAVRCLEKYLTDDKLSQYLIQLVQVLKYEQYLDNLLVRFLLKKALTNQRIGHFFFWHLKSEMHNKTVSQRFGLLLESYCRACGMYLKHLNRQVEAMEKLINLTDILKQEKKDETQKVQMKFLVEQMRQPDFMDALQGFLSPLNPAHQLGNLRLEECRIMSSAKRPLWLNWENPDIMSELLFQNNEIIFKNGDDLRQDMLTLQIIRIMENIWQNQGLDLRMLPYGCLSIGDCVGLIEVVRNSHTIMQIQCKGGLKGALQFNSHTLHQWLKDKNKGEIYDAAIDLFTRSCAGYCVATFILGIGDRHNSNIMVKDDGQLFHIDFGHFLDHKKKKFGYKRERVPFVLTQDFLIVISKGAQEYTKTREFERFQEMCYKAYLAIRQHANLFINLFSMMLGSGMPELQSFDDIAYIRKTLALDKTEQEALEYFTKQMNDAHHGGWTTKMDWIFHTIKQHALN

SMILES strings stand for the structures. pKi: −log10 of the molar value.

The first assay concerns the target PI3-Kα (Mus musculus (Mouse), UniProt P42337). Briefly: PI3-Kα biochemical assay (in vitro kinase assay, fluorescence polarization).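 Note: Insect-cell-expressed mouse p110/p85 complex converting PI(4,5)P2, product PI(3,4,5)P3 detected by displacing TAMRA-tagged PI(3,4,5)P3 from Grip1 PH domain, lower polarization means more product, room temperature.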 As to conditions: Ki calculated from IC50, [ATP]=30 uM, Km=25 uM.
Turning to `COc1ccc(-c2ccc3ncc4c(c3n2)n(C2CCN(C(=O)CO)CC2)c(=O)n4C)cc1` [Compound 273, 1-(1-glycoloylpiperidin-4-yl)-8-(4-methoxyphenyl)-3-methyl-1,3-dihydro-2H-imidazo[4,5-c][1,5]naphthyridin-2-one], the “PI3Ka Ki” value was 1.94 nM. Same read-out and setting: the same measure for `CN1CCC(n2c(=O)n(C)c3cnc4ccc(-c5ccc(N(C)C)nc5)nc4c32)CC1` [Compound 207, 8-[6-(dimethylamino)pyridin-3-yl]-3-methyl-1-(1-methylpiperidin-4-yl)-1,3-dihydro-2H-imidazo[4,5-c][1,5]naphthyridin-2-one]: 26.7 nM; for `CNC(=O)N1CCC(n2c(=O)n(C)c3cnc4ccc(-c5cnn(C)c5)nc4c32)CC1` [Compound 217, N-methyl-4-[3-methyl-8-(1-methyl-1H-pyrazol-4-yl)-2-oxo-2,3-dihydro-1H-imidazo[4,5-c][1,5]naphthyridin-1-yl]piperidine-1-carboxamide]: 26.2 nM. `COc1ncc(-c2ccc3ncc4c(c3n2)n([C@H]2CC[C@H](O)CC2)c(=O)n4C)cn1` [Compound 169, 1-(trans-4-hydroxycyclohexyl)-8-(2-methoxypyrimidin-5-yl)-3-methyl-1,3-dihydro-2H-imidazo[4,5-c][1,5]naphthyridin-2-one]: the “PI3Ka Ki” value was 0.974 nM.

For another assay, the target named is mTOR (Homo sapiens (Human), UniProt P42345).
Assay: not given
Conditions: not given
For orientation: pKi means the Ki on a negative log10 scale, so that one unit is a factor of ten. On to `CC(=O)N1CCC(n2c(=O)n(C)c3cnc4ccc(-c5cccc(-n6cccn6)c5)nc4c32)CC1` [Compound 247, 1-(1-acetylpiperidin-4-yl)-3-methyl-8-[3-(1H-pyrazol-1-yl)phenyl]-1,3-dihydro-2H-imidazo[4,5-c][1,5]naphthyridin-2-one], for which the pKi was 8.32. In the case of `C[C@H](CO)n1c(=O)n(C)c2cnc3ccc(-c4cnc5ccccc5c4)nc3c21` [Compound 234, 1-[(1R)-2-hydroxy-1-methylethyl]-3-methyl-8-quinolin-3-yl-1,3-dihydro-2H-imidazo[4,5-c][1,5]naphthyridin-2-one], the pKi is 8.02. The same measure, in the same setting: the same measure for `CN(C)c1ccc(-c2ccc3ncc4c(c3n2)n(C2CCN(C(=O)C(C)(C)O)CC2)c(=O)n4C)cn1` [Compound 209, 8-[6-(dimethylamino)pyridin-3-yl]-1-[1-(2-hydroxy-2-methylpropanoyl)piperidin-4-yl]-3-methyl-1,3-dihydro-2H-imidazo[4,5-c][1,5]naphthyridin-2-one]: 8.21.

`COc1ccc(-c2ccc3ncc4c(c3n2)n(C2CCN(C(=O)[C@H](C)O)CC2)c(=O)n4C)cc1` [Compound 272, 1-{1-[(2S)-2-hydroxypropanoyl]piperidin-4-yl}-8-(4-methoxyphenyl)-3-methyl-1,3-dihydro-2H-imidazo[4,5-c][1,5]naphthyridin-2-one] showed a pKi of 8.71. Same read-out and setting: with `Cn1c(=O)n([C@H]2CC[C@H](O)CC2)c2c3nc(-c4cnc5[nH]ncc5c4)ccc3ncc21` [Compound 268, 1-(trans-4-hydroxycyclohexyl)-3-methyl-8-(1H-pyrazolo[3,4-b]pyridin-5-yl)-1,3-dihydro-2H-imidazo[4,5-c][1,5]naphthyridin-2-one] the figure was 9.93; with `CNC(=O)Nc1ccc(-c2ccc3ncc4c(c3n2)n(C2CCN(C(=O)[C@H](C)O)CC2)c(=O)n4C)cc1` [Compound 244, 1-[4-(1-{1-[(2S)-2-hydroxypropanoyl]piperidin-4-yl}-3-methyl-2-oxo-2,3-dihydro-1H-imidazo[4,5-c][1,5]naphthyridin-8-yl)phenyl]-3-methylurea], 8.75. On to `COc1ncc(-c2ccc3ncc4c(c3n2)n(C2CCN(C(=O)CN(C)C)CC2)c(=O)n4C)cn1` [Compound 183, 1-[1-(N,N-dimethylglycyl)piperidin-4-yl]-8-(2-methoxypyrimidin-5-yl)-3-methyl-1,3-dihydro-2H-imidazo[4,5-c][1,5]naphthyridin-2-one], for which the pKi is 8.05.
